# Yeast mating assay B: variants of the scFv Ab-14

Reference: Li et al. 2023, doi:10.1038/s41467-023-39022-2. File: FLAb, binding data.

All variants were tested on one target, the spike HR2 peptide PDVDLGDISGINAS (SARS-CoV-2).

Parent scFv Ab-14: VH joined to VL by a (GGGGS)3 linker. Changes lie in the light chain CDRs alone.
VH: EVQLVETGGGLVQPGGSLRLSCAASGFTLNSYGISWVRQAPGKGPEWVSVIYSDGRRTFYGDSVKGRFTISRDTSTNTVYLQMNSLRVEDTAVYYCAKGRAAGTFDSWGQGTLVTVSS
VL: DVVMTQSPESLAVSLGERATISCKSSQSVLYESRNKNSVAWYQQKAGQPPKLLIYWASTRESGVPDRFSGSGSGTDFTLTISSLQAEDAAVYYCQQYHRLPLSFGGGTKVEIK

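The starting antibody came from a phage panning campaign against this peptide. The variants were designed computationally from a first round of random CDR variants and then made and measured. Group labels follow the data file (Ctrl: baseline library sampled from a position-specific scoring matrix, with some repeated check sequences; En: ensemble of fine-tuned language models; GP: Gaussian process model; HC: hill climbing; Gen: genetic algorithm; Gibbs: Gibbs sampling; a sequence that several methods proposed may carry one label only). AlphaSeq pools MATa yeast showing the antibodies with MATalpha yeast showing the peptide. Binding brings cells together so that they mate, and sequencing counts the barcode pairs among the diploids. A regression on co-assayed BCL2-family reference pairs converts the normalised counts of each replicate to an apparent Kd. Each pool was mated in six replicate cultures.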

Variants are written as CDR1, CDR2 and CDR3 of the light chain (limits as in the source). Parent: KSSQSVLYESRNKNSVA, WASTRES, QQYHRLPLS. Affinities are written as log10 Kd with Kd in nM; a lower number is a better binder. Averages over replicates are reported, and they cover detected replicates only. Where no diploid with the target was found in any replicate, the entry reads "nd": below detection, most likely a poor binder, though not proof of it. A sequence measured in both rounds can read differently, since the two assays cover different ranges.

mean log10 Kd (nM),detected,CDR-L1,CDR-L2,CDR-L3,group
nd,0/6,QIARAMYHGLNDNQNIA,DAMTYIK,QQYSRLPLF,En_Gibbs
1.11,6/6,KSSQSVLYESRNENSVA,DASTRES,QSYNRLPLS,Ctrl
0.43,6/6,KFKELFNMWARNHGNVA,DADERNV,QQYSRLPIS,En_Gibbs
-0.14,6/6,KLEQSHLYESRNKNSVA,QASTRES,QQYHRLPLS,GP_Gen
0.30,6/6,KSSQSVTFESRNCNSVA,DASTRES,QQYHRLPLS,GP_HC
0.68,6/6,KSSQSVLYESRNVNSVA,GGSTRIM,QQYHRLPLY,Ctrl
1.41,6/6,KISTQIPEFEMWDNAIA,GATLRET,QHYARLPLS,En_Gibbs
1.06,6/6,KSSQSDLYESTNKNSVA,WASTRSS,QQYHRLPLS,Ctrl
nd,0/6,MISQLMNLGQFAINSVA,QAEDRNA,QQYDRLPLA,En_Gen
0.04,6/6,KMSMSELYEDRNQNSVA,SASQRLS,QQYHRLPLS,GP_Gibbs
0.34,6/6,KLSQSELYESRNKNSVA,EASLRES,QQYHRLPLS,GP_Gen
2.40,6/6,KSSQSVLYESRNTNSVA,WASYRES,QQYHRLPLS,Ctrl
1.64,6/6,KLREVQHVESKQKNNVA,DNSTREY,QDYYRLPLS,En_HC
-0.24,6/6,KLSQSVPYEERNKNSVA,NASTRLS,QQYHRLPLS,GP_Gen
-0.20,6/6,KSQQGVLYESRVKNSVA,GASTRES,QQYHRLPLS,GP_HC
2.33,1/6,IVSQLMLWGYKAKNSIA,EAELRLN,QQYDRLPLF,En_Gen
2.83,1/6,KISQMYRYENQNHSSIA,EMNTREQ,QSYHRLPLS,En_HC
0.58,6/6,KLTHPTDSWLNHVNSIA,DANISVE,QQYMQLPLT,En_Gibbs
0.27,6/6,KLSQMHGTEWVNRNSVA,ELVTRMS,QQYNRLPLS,En_Gen
0.28,6/6,KFSQLQLYESRNKNSVA,NASTRES,QQYWRLPLS,GP_Gibbs
-0.02,6/6,KFPQSVGYETRNKNSVA,EASQREQ,QQYHRLPLS,GP_Gibbs
0.22,6/6,KVSQSALYESRNKNSVA,NASQRES,QQYHRLPLS,GP_Gen
0.77,6/6,KVSQSCLYESRNKNSVA,NASQRES,QQYHRLPLS,GP_Gen
0.76,1/6,YLSQSVEYESRNKNSVA,NASTREY,QQYHRLPLA,GP_Gibbs
0.49,6/6,KLGYNTGTESFRKDNIA,DNDLRED,QQYDRLPLS,En_Gen
0.18,6/6,KLPQSVLYESRNKNSVA,NASKRES,QQYHRLPLS,GP_Gen
-0.25,6/6,KSSMSGLYESRMKNSVA,EASTRES,QQYHRLPLS,GP_HC
1.25,6/6,KISQMQRVGSTHRNSIA,EEATRAK,QQYHRLPLQ,En_Gen
0.32,6/6,KVEQLVLYESRNKNAVA,QGSTRES,QQYHRLPLH,GP_Gibbs
2.07,6/6,KLYQSMNFLTRVMNSIA,DASTIPD,QQYHRLPLS,En_HC
1.86,6/6,KSSQSVLYESRNKNSVA,WASTREP,QQYHRLPLS,Ctrl
1.62,6/6,IISGVMVMESKHKNSVA,NAETREY,QHYDRLPLS,En_HC
-0.12,6/6,KLEQSTLYESRNKNSVA,NASTRES,QQYHRLPLS,GP_Gen
1.22,6/6,RMNKFMSEIGGARNSIA,GAEHLAQ,QHYHRLPLS,En_Gibbs
-0.29,6/6,KVDQSVGGLSRNQNAVA,AASTRES,QQYHRLPLS,GP_Gibbs
0.50,6/6,HISMMVGTKGYNKNSVA,NQETRED,QQYHRLPLS,En_HC
nd,0/6,KSSQSVLYESRNKNSVA,KASTRES,VTYHHLPNS,Ctrl
0.10,6/6,KISQEWLYESRNINNVA,SCSQRES,QQYHRLPLS,GP_Gibbs
0.18,6/6,KMSQSVLMEERNKNSVA,DASLRES,QQYHRLPLS,GP_HC
1.07,3/6,KLSMSYRHESENKNSIA,ELVTRMS,QQYHRLPLS,En_HC
0.05,6/6,KLMPSWEYESRNKNSVA,EASVRES,QQYHRLPLS,GP_Gibbs
0.61,6/6,KLNDAWQGDIVNNQNIA,SADTLNH,QQYAKLPLS,En_Gibbs
nd,0/6,MLSEVLHMLGIQKNSIA,DLVLRAN,QQYHRLPLS,En_Gen
nd,0/6,KSSQSVLYESRNKNSIA,WASTCES,QQYRRLPLS,Ctrl
-0.40,6/6,KLDFLGPYEQRNKNSVA,SASLRES,QQYHRLPLS,GP_Gibbs
0.23,6/6,KVSQSELYESRNKNSVA,NGSTRES,QQYHRLPLS,GP_Gen
-0.15,6/6,KVMQSVLYESRNKNNVA,NGSTREL,QQYHRLPLS,GP_Gibbs
0.94,6/6,KMQGSYLYESRNCNSVA,NASTRLW,QQYHRLPLS,GP_Gibbs
0.09,6/6,KVSYSVEYQERNKNSVA,QASQRES,QQYHRLPLS,GP_Gibbs

Top 6 of the variants detected in all replicates, tightest first:

CDR-L1	CDR-L2	CDR-L3	group	mean log10 Kd (nM)	detected
KLDFLGPYEQRNKNSVA	SASLRES	QQYHRLPLS	GP_Gibbs	-0.40	6/6
KVDQSVGGLSRNQNAVA	AASTRES	QQYHRLPLS	GP_Gibbs	-0.29	6/6
KSSMSGLYESRMKNSVA	EASTRES	QQYHRLPLS	GP_HC	-0.25	6/6
KLSQSVPYEERNKNSVA	NASTRLS	QQYHRLPLS	GP_Gen	-0.24	6/6
KSQQGVLYESRVKNSVA	GASTRES	QQYHRLPLS	GP_HC	-0.20	6/6
KVMQSVLYESRNKNNVA	NGSTREL	QQYHRLPLS	GP_Gibbs	-0.15	6/6

The authors averaged sequences with at least three values out of six and counted those with two or fewer as poor binders. As a blank, each scFv also met three strains without target: over all light chain designs, 4% of these pairings were detected, typically at 2.64 and seldom below 1.59.